# Data: PubChem BioAssay AID1347165 (National Center for Advancing Translational Sciences (NCATS), 2019)
# The chains behind the UniProt entries cited, without tags or fusion partners.
# UniProt Q9UGL1, whole entry: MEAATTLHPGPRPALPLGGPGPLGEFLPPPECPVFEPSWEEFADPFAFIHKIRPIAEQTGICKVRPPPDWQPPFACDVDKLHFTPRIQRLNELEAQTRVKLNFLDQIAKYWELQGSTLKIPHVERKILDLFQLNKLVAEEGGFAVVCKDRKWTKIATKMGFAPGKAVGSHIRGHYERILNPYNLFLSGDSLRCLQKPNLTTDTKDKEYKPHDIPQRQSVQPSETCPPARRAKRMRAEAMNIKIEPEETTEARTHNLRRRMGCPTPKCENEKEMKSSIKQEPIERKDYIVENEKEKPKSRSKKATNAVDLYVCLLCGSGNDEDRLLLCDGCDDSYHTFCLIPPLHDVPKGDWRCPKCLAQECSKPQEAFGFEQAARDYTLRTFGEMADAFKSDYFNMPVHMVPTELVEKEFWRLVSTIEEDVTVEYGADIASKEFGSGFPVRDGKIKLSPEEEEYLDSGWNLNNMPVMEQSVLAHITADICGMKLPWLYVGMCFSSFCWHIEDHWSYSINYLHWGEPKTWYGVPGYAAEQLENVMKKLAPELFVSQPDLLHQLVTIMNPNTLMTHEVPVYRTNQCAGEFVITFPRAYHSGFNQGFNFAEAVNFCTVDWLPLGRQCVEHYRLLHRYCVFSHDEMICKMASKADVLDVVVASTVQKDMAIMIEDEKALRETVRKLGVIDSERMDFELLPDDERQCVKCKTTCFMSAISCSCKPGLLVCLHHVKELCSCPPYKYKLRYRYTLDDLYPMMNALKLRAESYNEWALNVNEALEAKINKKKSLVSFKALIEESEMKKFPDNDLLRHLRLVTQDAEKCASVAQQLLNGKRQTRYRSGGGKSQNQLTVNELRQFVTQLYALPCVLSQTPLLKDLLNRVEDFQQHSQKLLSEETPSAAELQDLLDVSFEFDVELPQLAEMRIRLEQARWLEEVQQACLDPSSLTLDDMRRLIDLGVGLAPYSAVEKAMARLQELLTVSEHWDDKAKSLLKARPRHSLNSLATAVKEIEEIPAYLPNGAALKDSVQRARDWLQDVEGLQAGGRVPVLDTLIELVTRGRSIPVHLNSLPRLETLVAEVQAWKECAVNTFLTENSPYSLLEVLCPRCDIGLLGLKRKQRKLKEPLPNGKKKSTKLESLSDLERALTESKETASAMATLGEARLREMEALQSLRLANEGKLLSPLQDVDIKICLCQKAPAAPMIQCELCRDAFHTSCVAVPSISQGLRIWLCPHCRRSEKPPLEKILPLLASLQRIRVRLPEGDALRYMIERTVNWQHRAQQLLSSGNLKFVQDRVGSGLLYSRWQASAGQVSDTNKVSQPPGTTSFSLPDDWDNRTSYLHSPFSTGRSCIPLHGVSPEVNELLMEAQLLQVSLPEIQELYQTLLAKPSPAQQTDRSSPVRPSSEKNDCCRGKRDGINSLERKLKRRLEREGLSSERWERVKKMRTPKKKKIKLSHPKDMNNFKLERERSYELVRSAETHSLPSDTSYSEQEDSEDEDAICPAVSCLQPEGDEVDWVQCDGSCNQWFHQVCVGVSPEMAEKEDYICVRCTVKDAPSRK
# Only a part is listed here, and it is no random draw. Records with an inconclusive call do not appear. Activity calls are given as the source filed them. Calls follow the shape of the dose curve; as a rule, active = well fitted inhibition curve with a large enough effect; inconclusive = small, poorly fitted or top-dose-only effect; inactive = no such curve, though single readings can be large or run the other way.
# Biological target: Lysine-specific demethylase 5B (Homo sapiens) (UniProt Q9UGL1)
# Assay: Primary screen for KDM5B Histone Demethylases FDH-coupled qHTS; also: 0% is about no effect; nearly all actives have a fitted effect of over 70% in size
# Settings: FDH-coupled NADH fluorescence (FDH is formaldehyde dehydrogenase); at 57.7 µM (top of the series)
# Description: Assay Submitter (PI): Qin Yan, Ph.D. (Yale University) and Xiaodong Cheng, Ph.D. (MD Anderson) This project was funded as part of the NCI NEXT Program and Chemical Biology Consortium (CBC) The histone demethylases, KDM5A and KDM5B catalyze the demethylation of lysine 4 on histone H3 (H3K4me3/2). They are overexpressed in a variety of cancers and have been implicated in cancer cell growth, metastasis, drug resistance, and tumor growth. KDM5A is amplified and overexpressed in breast and gastric cancer; and is translocated in leukemia. While KDM5B is highly expressed in human mammary tumors and breast cancer cell lines, but not in normal adult breast tissue. Moreover, knockdown of KDM5B leads to upregulation of tumor suppressor genes, including BRCA1. The goal of this project is to employ qHTS to identify selective small molecule inhibitors of KDM5A/B demethylase activity to better understand the role of KDM5 in cancer and to develop novel therapies. We employed an FDH-coupled assay previously reported by Sakurai et al. to monitor in vitro KDM5 demethylase activity. Compounds showing dose response inhibition are re-acquired, validated, and tested for non-specific interference with the formaldehyde dehydrogenase (FDH) counterscreen. […]
# Materials: 1536-well Black, solid bottom, medium binding assay plate is purchased from Greiner Bio-one. […] The assay plate is incubated for 10 min at room temperature followed by addition of 1uL substrate mix (buffer + 100uM ascorbic acid, 50uM ferrous ammonium sulfate, 12.5uM H3K4Me3, 25uM a-ketoglutarate, 0.25 mM NAD+, 0.25 U/mL formaldehyde dehydrogenase using the FRD yielding a total reaction volume of 4 uL. Initial fluorescence (Read1) is detected using the PerkinElmer ViewLux plate reader equipped with 340 nm excitation and 450 nm emission filters. The final fluorescence (Read2) signal is obtained after 30 min of room temperature incubation. Delta RFU is calculated (Read2 - Read1) and is used to generated dose response curves.
row,Structure (SMILES),"activity change, negative = inhibition"
1,CCCCCOc1ccc(NP(C)(=O)Oc2ccc(Cl)cc2Cl)cc1 (stereo not drawn),inactive: -0.953%
2,CCc1ccc(OP(C)(=O)N2CCN(c3ccc([N+](=O)[O-])cc3)CC2)cc1 (stereo not drawn),inactive: -0.904%
3,O=[N+]([O-])c1cc([N+](=O)[O-])c(-c2cnn(-c3ccccc3)c2)c([N+](=O)[O-])c1,inactive: -8.11%
